# In PMC8624105 (Viruses, 2021):
# What was measured:
# Experiment in all cases: holdup assay
# Type in all cases: binding, human
# SHANK1 = tested on: SHANK1
# GRIP2 PDZ1 = details: PDZ about 4 μM; two independent experiments
# DFNB31 PDZ2 = details: PDZ about 4 μM; two independent experiments
# NHERF4 PDZ2 = details: PDZ about 4 μM; two independent experiments
# PTPN13 PDZ5 = details: PDZ about 4 μM; two independent experiments
# DLG3 PDZ2 = details: PDZ about 4 μM; two independent experiments
# LNX2 PDZ4 = details: PDZ about 4 μM; two independent experiments
# MPDZ PDZ9 = details: PDZ about 4 μM; two independent experiments
# DLG1 PDZ2 = details: PDZ about 4 μM; two independent experiments
# RGS3 PDZ1 = details: PDZ about 4 μM; two independent experiments
# APBA2 PDZ2 = details: PDZ about 4 μM; two independent experiments
# PDZD11 PDZ1 = details: PDZ about 4 μM; two independent experiments
substance,measurement,setting,value
Biotin-(PEG3)-GFQNTDDVQTSF [ACE2 PBM peptide],BI (binding intensity),"SHANK1; PDZ about 4 μM, two independent experiments",0.54
same,Kd,"SHANK1; converted from BI, PDZ typically 4 μM, immobilized peptide 21 μM, listed as PBM peptide from ACE2 protein, read-out: Kd estimated",16.3 µM
same,BI (binding intensity),GRIP2 PDZ1,-0.11
same,BI (binding intensity),DFNB31 PDZ2,-0.05
same,BI (binding intensity),NHERF4 PDZ2,-0.06
same,BI (binding intensity),PTPN13 PDZ5,-0.05
same,BI (binding intensity),DLG3 PDZ2,-0.27
same,BI (binding intensity),LNX2 PDZ4,0.01
same,BI (binding intensity),MPDZ PDZ9,0.03
same,BI (binding intensity),DLG1 PDZ2,-0.07
same,BI (binding intensity),RGS3 PDZ1,-0.04
same,BI (binding intensity),APBA2 PDZ2,-0.06
same,BI (binding intensity),PDZD11 PDZ1,0.01
